Assay results reported in ChEMBL document CHEMBL1140601, “Quantitative structure-activity relationship (QSAR) of tacrine derivatives against acetylcholinesterase (AChE) activity using variable selections” (Bioorg Med Chem Lett, 2007).

Protein sequences, listed by entry. Tags and fused reporters are not part of them. Lines headed by an entry give the natural chain unless they say otherwise; changes in a name come on top.
UniProt P22303: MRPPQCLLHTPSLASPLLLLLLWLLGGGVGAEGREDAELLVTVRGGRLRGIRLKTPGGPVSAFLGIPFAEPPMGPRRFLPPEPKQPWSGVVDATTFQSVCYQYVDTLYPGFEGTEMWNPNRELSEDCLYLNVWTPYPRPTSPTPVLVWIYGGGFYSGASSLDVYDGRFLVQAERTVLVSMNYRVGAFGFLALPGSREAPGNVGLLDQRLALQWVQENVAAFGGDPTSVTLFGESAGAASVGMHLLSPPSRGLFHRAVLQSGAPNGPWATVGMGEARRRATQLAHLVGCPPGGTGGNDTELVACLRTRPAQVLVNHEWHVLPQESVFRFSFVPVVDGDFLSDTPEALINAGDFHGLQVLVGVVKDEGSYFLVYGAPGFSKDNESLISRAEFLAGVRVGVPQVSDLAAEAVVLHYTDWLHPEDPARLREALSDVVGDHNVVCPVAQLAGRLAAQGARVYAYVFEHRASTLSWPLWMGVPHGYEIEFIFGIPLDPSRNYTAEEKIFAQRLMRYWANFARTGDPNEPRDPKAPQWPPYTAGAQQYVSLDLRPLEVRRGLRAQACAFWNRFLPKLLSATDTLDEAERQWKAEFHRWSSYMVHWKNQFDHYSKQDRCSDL

Target: Acetylcholinesterase (Homo sapiens) (UniProt P22303)

Q: With `Fc1ccc2c(NCCCCCCCNc3c4c(nc5cc(F)ccc35)CCCC4)c3c(nc2c1)CCCC3` as the molecule, how does the logRA read?
A: Its logRA is 2.74.
